# Measured values taken from article PMC3857906, “Ligand-Specific Regulation of the Endogenous Mu-Opioid Receptor by Chronic Treatment with Mu-Opioid Peptide Agonists” (BioMed Research International, 2013).
# Sequences of proteins named here, by UniProt entry; tags and fusion partners are left off.
# UniProt P33535, whole entry: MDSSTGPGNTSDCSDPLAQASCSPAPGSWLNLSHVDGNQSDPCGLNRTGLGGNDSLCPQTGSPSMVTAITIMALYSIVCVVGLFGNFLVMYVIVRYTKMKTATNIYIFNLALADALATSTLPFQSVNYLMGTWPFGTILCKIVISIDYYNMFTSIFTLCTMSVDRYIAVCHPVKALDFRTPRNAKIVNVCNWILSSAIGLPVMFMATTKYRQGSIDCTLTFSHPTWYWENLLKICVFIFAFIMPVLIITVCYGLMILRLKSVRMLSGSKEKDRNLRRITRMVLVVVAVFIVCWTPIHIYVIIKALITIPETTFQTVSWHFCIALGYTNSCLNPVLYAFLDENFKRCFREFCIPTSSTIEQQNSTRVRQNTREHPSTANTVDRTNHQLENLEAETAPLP
# Like-named read-outs stand apart in the source and are kept apart here.
# Biological target: T1, mu-opioid receptors (coupling to G-proteins) (Rattus norvegicus, UniProt P33535)
# T1 construct: fresh forebrains of four rats were pooled, gently homogenized; from tissue; host or cells: rat forebrain, synaptic plasma membrane (SPM) and microsomal (MI) fractions, from vehicle- or peptide-treated animals
# Test: DAMGO-stimulated [35S]GTPγS binding in rat brain subcellular fractions (SPM, MI) after in vivo chronic opioid peptide treatment
# Format: biochemical
# Method: The peptides were dissolved in artificial cerebrospinal fluid (CSF) and injected in a volume of 2 μL. […] Animals were killed 16 hrs after drug treatments by decapitation immediately followed by subcellular fractionation.
# Subcellular fractions of rat brains were purified as published. Briefly, fresh forebrains of four rats were pooled, gently homogenized in 10 volumes (v/w) of ice-cold buffer (5 mM Tris-HCl pH 7.4, 50 μM CaCl2, 0.5 mM dithiothreitol), and supplemented with 10% sucrose. All sucrose solutions were made in the above buffer. The homogenate was spun at 1,000 ×g for 10 min. The resulting pellet was resuspended in the above buffer and spun again. The combined supernatants were spun at 12,000 ×g for 20 min. The pellets were suspended in 10% sucrose and subjected to consecutive centrifugations at 20,000 ×g for 25 min and 14,000 ×g for 20 min twice resulting in crude synaptic plasma membranes (SPM). The resulting pellets were lysed followed by fractionation on a 10%, 28.5%, and 34% sucrose density step gradient that was spun at 100,000 ×g for 2 h. Highly enriched SPMs were obtained from the 28/34% interface. Crude microsomal (MI) fractions were obtained from the 12,000 ×g supernatant by consecutive centrifugations at 20,000 ×g for 25 min and 100,000 ×g for 1 h. MI fractions were purified on a 10% and 28.5% sucrose step gradient centrifuged at 100,000 ×g for 2 h and collected at 10/28.5% interface. SPM and MI fractions were diluted threefold with 50 mM Tris-HCl buffer and pelleted at 100,000 ×g for 1 h to remove sucrose. The resulting pellets were taken up in 50 mM Tris-HCl (pH 7.4) buffer to yield in 0.3–0.8 mg membrane protein/ml and were freshly used.
# The assay was performed as published with slight modifications. Briefly, rat brain membrane fractions (≈10 μg of protein) were incubated with [^35S]GTPγS (0.05 nM) and 5-6 concentrations (10^−9−10^−4 M) of opioid peptides in the presence of 100 μM GDP in Tris-EGTA (50 mM Tris-HCl, 1 mM EGTA and 5 mM MgCl2; pH 7.4) buffer in a total volume of 1 mL for 60 min at 30°C. Nonspecific binding was determined with 10 μM GTPγS and subtracted. […] Filters were rapidly washed with 3 × 5 mL ice-cold 50 mM Tris-HCl (pH 7.4) buffer, air-dried, and counted in a toluene-based scintillation cocktail in a Wallac 1409 scintillation counter (Wallac, Turku, Finland). […] Curves were constructed and analyzed by fitting sigmoidal dose-response curves using the GraphPad Prism 4 program (GraphPad Prism Software Inc) to obtain potency (EC50, concentration of the ligand to give half-maximal effect) and efficacy (E max, % maximal stimulation over basal activity) values. Basal activities were measured in the absence of opioid ligands and set as 0%. […]
structure (smiles),measurement,setting,value
"C[C@@H](NC(=O)[C@@H](N)Cc1ccc(O)cc1)C(=O)NCC(=O)N(C)[C@@H](Cc1ccccc1)C(=O)NCCO [DAMGO, Tyr-D-Ala-Gly-(NMe)Phe-Gly-ol]",EC50,"EC50 of DAMGO added in vitro, MI of rats chronically treated icv with the named peptide, read-out: EC50 (nM) MI Treated",86 ± 2 nM
same,EC50,"EC50 of DAMGO added in vitro, SPM of rats chronically treated icv with the named peptide, read-out: EC50 (nM) SPM Treated",107 ± 14 nM
same,EC50,"MI of vehicle administered rats, read-out: potency (EC50) of DAMGO in control MI",100 ± 18 nM
same,EC50,"SPM of vehicle administered rats, read-out: potency (EC50) of DAMGO in control SPM",44 ± 6 nM
